In patent US11382328B2, “Rapid drug discovery methods for pathogen inactivation” (priority 2019, dated 2022):

System: E. coli strain W3110
Assay: Synergy assays: Biolog chemical sensitivity panels with Group IB metal, coefficient of drug interaction (CDI) from relative growth

Row | Substance | CDI (coefficient of drug interaction) (Gold section of Table 5, second of three gold concentrations (μM, value not given), biocide concentration 1 of 4) | CDI (coefficient of drug interaction) (Gold 5 μM, biocide concentration 4 of 4, E. coli) | CDI (coefficient of drug interaction), silver + biocide (Silver 5.0 μM, 2nd of four biocide concentrations, E. coli)
1 | spiramycin | 1.02 |  | 
2 | acriflavine |  | 1.02 | 1.02
